Reference: US12048708B2 (RHOSHAN PHARMACEUTICALS, INC., priority 2017, dated 2024)
Read-outs that look alike come from different tables or passages of the source.

Experiments:
[1] = Saturation solubility of ASA in organic solvents and TBA-Water systems; type: physicochemical
Source text: Procedure for Solubility Determination:

[2] = cited from earlier work; for solubility of aspirin: pH 5.5 and above

~Solubility of Aspirin ([1]; Polyethylene glycol 400): ~150 mg/mL
~Solubility of Aspirin ([1]; Propylene glycol): ~155 mg/mL
~Solubility of Aspirin ([1]; TBA): ~150 mg/mL
~Solubility of Aspirin ([1]; TBA:Water (20:80)): ~9 mg/mL
~Solubility of Aspirin ([1]; TBA:Water (25:75)): ~18 mg/mL
~Solubility of Aspirin ([1]; TBA:Water (30:70)): ~38 mg/mL
~Solubility of Aspirin ([1]; TBA:Water (40:60)): ~50 mg/mL
~Solubility of Aspirin ([1]; TBA:Water (60:40)): ~105 mg/mL
~Solubility of Aspirin ([1]; TBA:Water (80:20)): ~120 mg/mL
~Solubility of Aspirin ([1]; isopropanol): ~140 mg/mL
~Solubility of Aspirin ([1]; n-butanol): ~100 mg/mL
~Solubility of Aspirin ([1]; n-propanol): ~130 mg/mL
Substance: o-acetylsalicylic acid [ASA]
solubility ([2]; dimethyl formamide, DMF): 30 mg/mL
solubility ([2]; dimethyl sulfoxide, DMSO): 41 mg/mL
solubility ([2]; ethanol): 80 mg/mL
solubility of aspirin [2]: greater than 100 mg/ml
solubility of aspirin ([2]; listed as aspirin): more than 100 mg/ml
solubility in water ([2]; water): about 0.3%
